By UniProt entry, the sequences of proteins in these tests, tags left out. Residues count along the entry.
UniProt Q14416, 19-872: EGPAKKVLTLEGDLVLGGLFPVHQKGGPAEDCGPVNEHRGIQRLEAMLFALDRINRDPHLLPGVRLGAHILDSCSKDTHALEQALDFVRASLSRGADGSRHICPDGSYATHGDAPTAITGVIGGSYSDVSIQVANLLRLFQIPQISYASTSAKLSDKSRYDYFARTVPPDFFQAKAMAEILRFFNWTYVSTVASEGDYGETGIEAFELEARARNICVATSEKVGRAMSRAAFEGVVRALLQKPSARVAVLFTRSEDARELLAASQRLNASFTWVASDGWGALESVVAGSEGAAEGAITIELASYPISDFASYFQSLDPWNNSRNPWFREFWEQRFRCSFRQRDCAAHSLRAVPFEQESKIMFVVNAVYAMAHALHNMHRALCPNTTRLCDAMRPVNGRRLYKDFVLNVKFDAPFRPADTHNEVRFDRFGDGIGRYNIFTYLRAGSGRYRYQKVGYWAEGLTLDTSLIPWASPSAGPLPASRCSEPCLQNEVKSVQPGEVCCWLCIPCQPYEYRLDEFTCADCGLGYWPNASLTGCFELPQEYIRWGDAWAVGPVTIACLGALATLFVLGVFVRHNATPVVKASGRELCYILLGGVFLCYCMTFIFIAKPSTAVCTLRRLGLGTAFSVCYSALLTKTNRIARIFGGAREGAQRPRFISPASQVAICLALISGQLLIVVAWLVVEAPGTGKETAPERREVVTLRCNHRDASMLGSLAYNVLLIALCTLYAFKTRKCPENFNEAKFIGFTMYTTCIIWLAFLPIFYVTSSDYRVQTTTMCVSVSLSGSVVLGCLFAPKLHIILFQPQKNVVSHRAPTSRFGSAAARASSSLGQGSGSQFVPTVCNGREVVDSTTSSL

According to US9278960B2, “Quinoline carboxamide and quinoline carbonitrile derivatives as mGluR2-negative allosteric modulators, compositions, and their use” (Merck Sharp & Dohme Corp., priority 2011, dated 2016):

target: human mGluR2 (Homo sapiens (Human), UniProt Q14416); experiment: FLIPR Ca2+ mobilization antagonist assay in CHO dhfr- cells expressing recombinant human mGluR2 and Gα16; format: cell-based; details: antagonist response after addition of 2,500 nM glutamate, Fluo-4 AM, FLIPR384

Structure (SMILES) | IC50 [nM]
CN(CC(N)=O)Cc1ccc2c(-c3ccc(F)cc3)cc(C(N)=O)nc2c1 [Example 4-31, 7-{[(2-amino-2-oxoethyl)(methyl)amino]methyl}-4-(4-fluorophenyl)quino-line-2-carboxamide] | 84
CCC(O)(c1cn(Cc2ccc3c(-c4ccc(OC)cc4F)cc(C(N)=O)nc3c2)cn1)C(F)(F)F (centres unmarked) [Example 3-48, 4-(2-fluoro-4-methoxyphenyl)-7-({4-[1-hydroxy-1-(trifluoromethyl)propyl]-1H-imidazol-1-yl}methyl)quinoline-2-carboxamide] | 16
Cn1cc(-c2cc(C(N)=O)nc3cc(Cc4cnc(C5CC5)nc4)ccc23)cn1 [Example 6-2, 7-((2-Cyclopropylpyrimidin-5-yl)methyl)-4-(1-methyl-1H-pyrazol-4-yl)quinoline-2-carboxamide] | 21
CC(C)C1CN(Cc2ccc3c(-c4ccc(F)cc4)cc(C(N)=O)nc3c2)CCN1 (centres unmarked) [Example 4-109, 4-(4-fluorophenyl)-7-{[3-(1-methylethyl)piper-azin-1-yl]methyl}quinoline-2-carboxamide] | 116
COC(=O)c1cncn1Cc1ccc2c(-c3ccc(F)cc3)cc(C(N)=O)nc2c1 [Example 3-26, methyl 1-{[2-carbamoyl-4-(4-fluorophenyl)quin-olin-7-yl]methyl}-1H-imidazole-5-carboxylate] | 25
NC(=O)c1cc(-c2ccc(F)cc2)c2ccc(Cn3cc(C(=O)O)nn3)cc2n1 [Example 3-28, 1-{[2-carbamoyl-4-(4-fluorophenyl)quin-olin-7-yl]methyl}-1H-1,2,3-triazole-4-carboxylic acid] | 84
CC1CN(Cc2ccc3c(-c4ccc(F)cc4)cc(C(N)=O)nc3c2)CC(C(F)(F)F)N1 (centres unmarked) [Example 4-115, 4-(4-fluorophenyl)-7-{[3-methyl-5-(trifluoromethyl)piperazin-1-yl]methyl}quinoline-2-carboxamide] | 34
Cn1cc(-c2cc(C(N)=O)nc3cc(CN4C[C@H](C(F)(F)F)OCC4(C)C)ccc23)cn1 [Example 4-96, 7-{[(2R)-5,5-dimethyl-2-(trifluoromethyl)morpholin-4-yl]methyl}-4-(1-methyl-1H-pyrazol-4-yl)quinoline-2-carboxamide] | 8
Cn1cc(-c2cc(C(N)=O)nc3cc(Cc4cccnc4C(F)(F)F)ccc23)cn1 [Example 6-22, 4-(1-methyl-1H-pyrazol-4-yl)-7-{[2-(trifluoromethyl)pyridin-3-yl]methyl} quinoline-2-carboxamide] | 42
C[C@H]1CN(Cc2ccc3c(-c4ccc(F)cc4)cc(C(N)=O)nc3c2)CCN1 [Example 4-104, 4-(4-fluorophenyl)-7-{[(3S)-3-methylpiperazin-1-yl]methyl}quinoline-2-carboxamide] | 120
C[C@@H]1CN(Cc2ccc3c(-c4ccc(F)cc4)cc(C(N)=O)nc3c2)CCN1 [Example 4-103, 4-(4-fluorophenyl)-7-{[(3R)-3-methylpiperazin-1-yl]methyl}quinoline-2-carboxamide] | 114
CCC1(C)CC(=O)N(Cc2ccc3c(-c4ccc(F)cc4)cc(C(N)=O)nc3c2)C1=O (centres unmarked) [Example 2-14, 7-[(3-ethyl-3-methyl-2,5-dioxopyrrolidin-1-yl)methyl]-4-(4-fluorophenyl)quinoline-2-carboxamide] | 30
COc1ccc(-c2cc(C(N)=O)nc3ccccc23)c(F)c1 [Example 1-20, 4-(2-fluoro-4-methoxyphenyl)quino-line-2-carboxamide] | 139
NC(=O)c1cc(-c2ccc(F)cc2)c2ccc(CN3CCOCC3=O)cc2n1 [Example 2-35, 4-(4-fluorophenyl)-7-[(3-oxomorpholin-4-yl)methyl]quinoline-2-carboxamide] | 228
Cc1ncc(-c2cc(C(N)=O)nc3cc(CN4CCOC(C(F)(F)F)C4)ccc23)s1 (centres unmarked) [Example 4-51, 4-(2-methyl-1,3-thiazol-5-yl)-7-{[2-(trifluoromethyl)morpholin-4-yl]methyl}quinoline-2-carboxamide] | 9
Cn1cc(-c2cc(C(N)=O)nc3cc(CN4CCCC5(CC5)C4)ccc23)cn1 [Example 4-120, 7-(5-azaspiro[2.5]oct-5-ylmethyl)-4-(1-methyl-1H-pyrazol-4-yl)quinoline-2-carboxamide] | 238
NC(=O)c1cc(-c2ccc(F)cc2)c2ccc(Cn3cnc4cccnc43)cc2n1 [Example 3-33, 4-(4-fluorophenyl)-7-(3H-imidazo[4,5-b]pyridin-3-ylmethyl)quinoline-2-carboxamide] | 69
NC(=O)c1cc(C2=CCCCC2)c2ccc(CN3C(=O)CCC3=O)cc2n1 [Example 2-25, 4-cyclohex-1-en-1-yl-7-[(2,5-dioxopyrrolidin-1-yl)methyl]quinoline-2-carboxamide] | 16
CCC(O)(c1cn(Cc2ccc3c(-c4ccc(OC)cc4)cc(C(N)=O)nc3c2)cn1)C(F)(F)F (centres unmarked) [Example 3-51, 7-({4-[1-hydroxy-1-(trifluoromethyl)propyl]-1H-imidazol-1-yl}methyl)-4-(4-methoxyphenyl) quinoline-2-carboxamide] | 10
Cn1cc(-c2cc(C(N)=O)nc3cc(Cc4ccnc(C(F)(F)F)c4)ccc23)cn1 [Example 6-21, 4-(1-methyl-1H-pyrazol-4-yl)-7-{[2-(trifluoromethyl)pyridin-4-yl]methyl} quinoline-2-carboxamide] | 6
Cc1nn(C)c(C)c1-c1cc(C(N)=O)nc2cc(CN3C[C@@H](C)O[C@@H](C(F)(F)F)C3)ccc12 [Example 4-134, 7-{[(2R,6R)-2-methyl-6-(trifluoromethyl)morpholin-4-yl]methyl}-4-(1,3,5-trimethyl-1H-pyrazol-4-yl)quinoline-2-carboxamide] | 86
NC(=O)c1cc(-c2ccc(F)cc2)c2ccc(Cn3c(-c4cccnc4)nc4ccccc43)cc2n1 [Example 3-37, 4-(4-fluorophenyl)-7-[(2-pyridin-3-yl-1H-benzimidazol-1-yl)methyl]quinoline-2-carboxamide] | 42
C[C@@H]1CN(Cc2ccc3c(-c4cnc(N)s4)cc(C(N)=O)nc3c2)C[C@H](C(F)(F)F)O1 [Example 4-128, 4-(2-amino-1,3-thiazol-5-yl)-7-{[(2R,6R)-2-methyl-6-(trifluoromethyl)morpholin-4-yl]methyl}quinoline-2-carboxamide] | 142
COc1cc(Cc2ccc3c(-c4cnn(C)c4)cc(C(N)=O)nc3c2F)cc(C)n1 [Example 7-35, 8-fluoro-7-[(2-methoxy-6-methylpyridin-4-yl)methyl]-4-(1-methyl-1H-pyrazol-4-yl)quinoline-2-carboxamide] | 14
Cn1cc(-c2cc(C(N)=O)nc3cc(CN4CCCCC4CF)ccc23)cn1 (centres unmarked) [Example 4-131, 7-{[2-(fluoromethyl)piper-idin-1-yl]methyl}-4-(1-methyl-1H-pyrazol-4-yl)quinoline-2-carboxamide] | 112
Cc1ccc2c(-c3ccccc3Cl)cc(C(N)=O)nc2c1 [Example 1-27, 4-(2-chlorophenyl)-7-methylquinoline-2-carboxamide] | 377
CN1CCN(Cc2ccc3c(-c4ccc(F)cc4)cc(C(N)=O)nc3c2)CC1C(F)(F)F (centres unmarked) [Example 4-94, 4-(4-fluorophenyl)-7-{[4-methyl-3-(trifluoromethyl)piperazin-1-yl]methyl}quinoline-2-carboxamide] | 63
CC(C)c1nc2ccccc2n1Cc1ccc2c(-c3ccc(F)cc3)cc(C(N)=O)nc2c1 [Example 3-43, 4-(4-fluorophenyl)-7-{[2-(1-methylethyl)-1H-benzimidazol-1-yl]methyl}quinoline-2-carboxamide] | 66

Other lines, results leading:

IC50 [nM] | Structure (SMILES)
5 | NC(=O)c1cc(-c2ccc(F)cc2)c2ccc(C(O)Cc3cccnc3)cc2n1 (centres unmarked) [Example 8-17, 4-(4-fluorophenyl)-7-(1-hydroxy-2-pyridin-3-ylethyl)quinoline-2-carboxamide]
33 | COc1ccc(-c2cc(C(N)=O)nc3cc(C(C)Cc4cccnc4N)ccc23)c(F)c1 (centres unmarked) [Example 8-38, 7-[2-(2-aminopyridin-3-yl)-1-methylethyl]-4-(2-fluoro-4-methoxyphenyl) quinoline-2-carboxamide]
10 | COc1ccc(-c2cc(C(N)=O)nc3cc(C(C)Cc4cccnc4)ccc23)cc1 (centres unmarked) [Example 8-40, 4-(4-methoxyphenyl)-7-(1-methyl-2-pyridin-3-ylethyl)quinoline-2-carboxamide]
9 | COc1ccc(-c2cc(C(N)=O)nc3cc(C(C)Cc4ccc(CF)nc4)ccc23)c(F)c1 (centres unmarked) [Example 8-49, 4-(2-fluoro-4-methoxyphenyl)-7-{2-[6-(fluoromethyl)pyridin-3-yl]-1-methylethyl} quinoline-2-carboxamide]
14 | COc1ccc(-c2cc(C(N)=O)nc3cc(C(C)Cc4cccnc4N)ccc23)c(F)c1 (centres unmarked) [Example 8-39, 7-[2-(2-aminopyridin-3-yl)-1-methylethyl]-4-(2-fluoro-4-methoxyphenyl) quinoline-2-carboxamide]
10 | COc1ccc(-c2cc(C(N)=O)nc3cc(C(C)Cc4cccnc4)ccc23)c(F)c1 (centres unmarked) [Example 8-45, 4-(2-fluoro-4-methoxyphenyl)-7-(1-methyl-2-pyridin-3-ylethyl)quinoline-2-carboxamide]
10 | NC(=O)c1cc(-c2ccc(F)cc2)c2ccc(C(O)Cc3ccc(Cl)nc3)cc2n1 (single isomer, unassigned) [Example 8-1, 7-[2-(6-Chloropyridin-3-yl)-1(R or S)-hydroxyethyl]-4-(4-fluorophenyl)quinoline-2-carboxamide]
96 | COc1ccc(-c2cc(C(N)=O)nc3cc(CCc4cnc(C)nc4)ccc23)cc1OC [Example 8-55, 4-(3,4-dimethoxyphenyl)-7-[2-(2-methylpyrimidin-5-yl)ethyl]quinoline-2-carboxamide]
15 | COc1ccc(-c2cc(C(N)=O)nc3cc(C(C)Cc4cccnc4N)ccc23)cc1 (centres unmarked) [Example 8-36, 7-[2-(2-aminopyridin-3-yl)-1-methylethyl]-4-(4-methoxyphenyl) quinoline-2-carboxamide]
8 | COc1ccc(-c2cc(C(N)=O)nc3cc(C(C)Cc4cccnc4)ccc23)c(F)c1 (centres unmarked) [Example 8-44, 4-(2-fluoro-4-methoxyphenyl)-7-(1-methyl-2-pyridin-3-ylethyl)quinoline-2-carboxamide]
